Source: paper PMC5021948, “Amyloidogenic amyloid-β-peptide variants induce microbial agglutination and exert antimicrobial activity” (Scientific Reports, 2016)

Experiments:
C. albicans = experiment: Gram staining, microbial agglutination; assay type: cell-based, Candida albicans; conditions: 50 μg/ml, 20 h
Method: (§1) Enterococcus faecalis (ATCC 29212), Listeria monocytogenes (VA 15110/93), Escherichia coli (DH5α) and Staphylococcus aureus (ATCC 25923) were grown aerobically on blood agar plates. Candida albicans (ATCC 10231) was plated on Sabouraud dextrose agar plates. E. coli, S. aureus and C. albicans were cultured at 37 °C; E. faecalis and L. monocytogenes were cultured at 37 °C with an additional 5% CO2. Before the experiments, the organisms were subcultured to generate mid-logarithmic growth cultures for use as inoculates. Colonies from the agar were transferred using a sterile loop to Mueller-Hinton broth (Roth, Karlsruhe, Germany) and incubated for 100 min at 39 °C to achieve a McFarland density of 0.5. The C. albicans and bacterial inocula were normalized in Mueller-Hinton broth to 5 × 10^5 cells/ml immediately before use. For the experiments, an inoculum of 5 × 10^5 cells/ml was dispensed into 96-well plates containing Mueller-Hinton broth growth medium with Aβ peptides, as indicated below.
(§2) The same cultures analysed by flow cytometry were used for the gram staining. After incubating the bacteria and C. albicans with the peptides, 10 μl of the cell suspensions were air-dried on microscope slides and flame-fixated. The smears were flooded with crystal violet solution for 2 min. The slides were rinsed and then incubated for 2 min with iodine solution. […]

L. monocytogenes = experiment: Gram staining, microbial agglutination; assay type: cell-based, Listeria monocytogenes; conditions: 50 μg/ml, 6 h
Method: as §1, §2

[1] = system: surfaces of E. faecalis and S. aureus; experiment: Immunocytochemistry (6E10), Aβ peptide bound to microbial surface; assay type: binding; conditions: 50 μg/ml, 6 h, 6E10 antibody, mean pixel intensity in donut-shaped masks
Method: The immunocytochemistry of E. faecalis and S. aureus was examined using the Gram preparations specified above. To achieve the robust adherence of pathogens on the glass slides during the staining procedure, cells were incubated with 2% paraformaldehyde (Sigma-Aldrich, Munich, Germany) on the slides and air dried for 60 min at room temperature, followed by washing with PBS (Biochrom, Berlin, Germany). […]
All images were visually quality controlled. […] An automated quantitative phenotypic image analysis was performed using a custom-adapted version of the image analysis software DetecTiff. Pericellular Aβ peptide levels were quantified from the AF488 channel within donut-shaped masks (see Fig. 1B), which were generated from the DAPI channel in a three-step procedure. […] The Aβ peptide level in an individual cell was calculated as the arithmetic mean of all pixel values within the area of a donut-shaped mask and reported as the mean pixel intensity. Cell aggregation was quantified in an automated manner from segmented images of DAPI-stained nuclei by counting the number of bacteria adjacent to a selected individual bacterium within a rectangular 50-pixel[2] region.

[2] = system: E. faecalis, E. coli, S. aureus, L. monocytogenes and C. albicans; experiment: Flow cytometry of damaged microorganisms (increased autofluorescence / reduced forward scatter); assay type: cell-based; conditions: 25 or 50 μg/ml, 6 h bacteria, 20 h C. albicans
Method: as §1, with “For the experiments, an inoculum of 5 × 10^5 cells/ml was dispensed into 96-well plates containing Mueller-Hinton broth growth medium with Aβ peptides, as indicated below.” left out
After 6 h of incubation for bacteria and 20 h for C. albicans, 50 μl of the cell suspension was diluted in 1% paraformaldehyde (Sigma-Aldrich, Munich, Germany) and stained with DAPI (Sigma-Aldrich, Munich, Germany). Flow cytometry analysis was performed using a Gallios Cytometer (Beckman Coulter, Krefeld, Germany), and the results were evaluated using Kaluza® software (Beckman & Coulter, Krefeld, Germany). […] Viability was assessed based on the increase in autofluorescence and reduction of forward scatter as signs of microbial damage.

## Aβ2-42: amyloidogenic, N-terminally truncated amyloid-β peptide variant ending at position 42 (Anaspec)
C. albicans
  microbial agglutination in Gram stains: no agglutinated bacteria were observed
L. monocytogenes
  microbial agglutination in Gram stains: no agglutinated bacteria were observed
[1]
  binding of Aβ peptide to microbial surfaces: bound to microbial surfaces
[2]
  antimicrobial / microbicidal activity by flow cytometry: very strong microbicidal effect
